A word on the Kd: it is the free concentration of one partner at which half of the binding sites on the other are occupied at equilibrium, for simple one-to-one binding. Lower therefore signals tighter binding.

The values that follow come from PMC6393490.

For the assay, the target named is FITC-IKKβ_(KKRR)(701–745) (UniProt O14920). Kind of assay: fluorescence polarisation; fluorescence anisotropy, direct binding; 30 nM N-terminally FITC-labelled IKKβ_(KKRR)(701–745) as reporter, NEMO proteins at varying concentrations; room temperature; 2 mM Tris, 100 mM NaCl, 2 mM DTT, pH 8.0, 0.1 mg/mL IgG, 0.5 mM Thesit; triplicate; quadratic binding equation. (In general: Fluorescence polarisation rises when a labelled molecule tumbles more slowly, as on binding a larger partner.)

The substance “NEMO-CC (from UniProt Q9Y6K9 51-112) (domain or fragment)” had an equilibrium dissociation constant (Kd) of 22 nM.
In turn, “NEMO-I65M (from UniProt Q9Y6K9 51-112) (domain or fragment)” registered a Kd of 35 nM.
